Each molecule was assayed against Recombinant human cathepsin S (CatS) (Homo sapiens, UniProt P25774) (assay: biochemical).

The chains behind the UniProt entries cited, without tags or fusion partners. Residues count along the entry.
UniProt P25774, 115-331: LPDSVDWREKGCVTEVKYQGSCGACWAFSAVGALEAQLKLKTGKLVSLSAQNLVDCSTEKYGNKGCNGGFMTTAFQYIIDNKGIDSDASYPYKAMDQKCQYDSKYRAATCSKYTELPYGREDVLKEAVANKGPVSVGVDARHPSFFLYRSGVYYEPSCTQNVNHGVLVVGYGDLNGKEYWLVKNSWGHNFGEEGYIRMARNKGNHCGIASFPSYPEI

Point of comparison: `CC(=O)N1CCN(CCSc2cc(-c3nn(CC(O)CN4CCN(c5ccccc5C#N)CC4)c4c3CN(S(C)(=O)=O)CC4)ccc2C(F)(F)F)CC1` (stereo not shown) [Example 865, 2-[4-(3-{3-[3-{[2-(4-Acetylpiperazin-1-yl)ethyl]sulfanyl}-4-(trifluoromethyl)phenyl]-5-(methylsulfonyl)-4,5,6,7-tetrahydro-1H-pyrazolo[4,3-c]pyridin-1-yl}-2-hydroxypropyl)piperazin-1-yl]benzonitrile], IC50 120 nM. Against it:
- CS(=O)(=O)N1CCc2c(c(-c3ccc(C(F)(F)F)c(SCC(=O)N4CCC(Cc5ccccc5)CC4)c3)nn2CCCN2CCC(N3CCCC3=O)CC2)C1 [Example 104, 1-{1-[3-(3-{3-[2-(4-Benzyl-piperidin-1-yl)-2-oxo-ethylsulfanyl]-4-trifluoromethyl-phenyl}-5-methanesulfonyl-4,5,6,7-tetrahydro-pyrazolo[4,3-c]pyridin-1-yl)-propyl]-piperidin-4-yl}-pyrrolidin-2-one] — 2.8-fold higher, 330 nM
- CC(=O)N1CCN(CCSc2cc(-c3nn(CC(O)CN4CCC(NS(C)(=O)=O)CC4)c4c3CN(S(C)(=O)=O)CC4)ccc2C(F)(F)F)CC1 (stereo not shown) [Example 857, N-[1-(3-{3-[3-{[2-(4-Acetylpiperazin-1-yl)ethyl]sulfanyl}-4-(trifluoromethyl)phenyl]-5-(methylsulfonyl)-4,5,6,7-tetrahydro-1H-pyrazolo[4,3-c]pyridin-1-yl}-2-hydroxypropyl)piperidin-4-yl]methanesulfonamide] — 5.4-fold higher, 650 nM
- OC(CN1CCN(c2ccc(F)cc2)CC1)Cn1nc(-c2ccc(C(F)(F)F)c(SCCN3CCCCC3)c2)c2c1CCNC2 (stereo not shown) [Example 403, 1-[4-(4-Fluorophenyl)piperazin-1-yl]-3-(3-{3-[(2-piperidin-1-ylethyl)sulfanyl]-4-(trifluoromethyl)phenyl}-4,5,6,7-tetrahydro-1H-pyrazolo[4,3-c]pyridin-1-yl)propan-2-ol] — 5.2-fold higher, 630 nM
- CS(=O)(=O)N1CCc2c(c(-c3ccc(C(F)(F)F)c(SCCN4CCC(F)CC4)c3)nn2CC(O)CN2CCCCC2CO)C1 (stereo not shown) [Example 571, 1-{3-[3-{[2-(4-Fluoropiperidin-1-yl)ethyl]sulfanyl}-4-(trifluoromethyl)phenyl]-5-(methylsulfonyl)-4,5,6,7-tetrahydro-1H-pyrazolo[4,3-c]pyridin-1-yl}-3-[2-(hydroxymethyl)piperidin-1-yl]propan-2-ol] — 3.9-fold higher, 470 nM
- CN1CCC(N(C)C(=O)CSc2cc(-c3nn(CCCN4CCC(N5CCCC5=O)CC4)c4c3CN(S(C)(=O)=O)CC4)ccc2C(F)(F)F)CC1 [Example 99, 2-[5-(5-Methanesulfonyl-1-{3-[4-(2-oxo-pyrrolidin-1-yl)-piperidin-1-yl]-propyl}-4,5,6,7-tetrahydro-1H-pyrazolo[4,3-c]pyridin-3-yl)-2-trifluoromethylphenylsulfanyl]-N-methyl-N-(1-methyl-piperidin-4-yl)-acetamide] — 10-fold higher, 1260 nM
- CC(=O)N1CCc2c(c(-c3ccc(C(F)(F)F)c(SCCN4CCC(F)CC4)c3)nn2C[C@@H](O)CN2CCCCC2)C1 [Example 321, (2S)-1-{5-Acetyl-3-[3-{[2-(4-fluoropiperidin-1-yl)ethyl]sulfanyl}-4-(trifluoromethyl)phenyl]-4,5,6,7-tetrahydro-1H-pyrazolo[4,3-c]pyridin-1-yl}-3-piperidin-1-ylpropan-2-ol] — 3.2-fold higher, 390 nM
- CC(=O)N1CCc2c(c(-c3ccc(C(F)(F)F)c(SCC(=O)N4CCCC4)c3)nn2CC(O)CN2CCC(C)(C)CC2)C1 (stereo not shown) [Example 330, 1-(5-Acetyl-3-{3-[(2-oxo-2-pyrrolidin-1-ylethyl)sulfanyl]-4-(trifluoromethyl)phenyl}-4,5,6,7-tetrahydro-1H-pyrazolo[4,3-c]pyridin-1-yl)-3-(4,4-dimethylpiperidin-1-yl)propan-2-ol] — 2.4-fold higher, 290 nM
- CS(=O)(=O)N1CCc2c(c(-c3ccc(C(F)(F)F)c(SCCN4CCOCC4)c3)nn2CC(O)CN2CCC(C(=O)N3CCCC3)CC2)C1 (stereo not shown) [Example 752, 1-[5-(Methylsulfonyl)-3-{3-[(2-morpholin-4-ylethyl)sulfanyl]-4-(trifluoromethyl)phenyl}-4,5,6,7-tetrahydro-1H-pyrazolo[4,3-c]pyridin-1-yl]-3-[4-(pyrrolidin-1-ylcarbonyl)piperidin-1-yl]propan-2-ol] — 2.7-fold higher, 320 nM
- CS(=O)(=O)N1CCc2c(c(-c3ccc(C(F)(F)F)c(SCCN4CCC(F)CC4)c3)nn2C[C@@H](O)CN2CCC[C@H](O)C2)C1 [Example 481, (3S)-1-[(2S)-3-{3-[3-{[2-(4-Fluoropiperidin-1-yl)ethyl]sulfanyl}-4-(trifluoromethyl)phenyl]-5-(methylsulfonyl)-4,5,6,7-tetrahydro-1H-pyrazolo[4,3-c]pyridin-1-yl}-2-hydroxypropyl]piperidin-3-ol] — 2-fold higher, 240 nM
- O=C(CSc1cc(-c2nn(CC(O)CN3CCC(O)(c4ccccn4)CC3)c3c2CNCC3)ccc1C(F)(F)F)N1CCOCC1 (stereo not shown) [Example 461, 1-[2-Hydroxy-3-(3-{3-[(2-morpholin-4-yl-2-oxoethyl)sulfanyl]-4-(trifluoromethyl)phenyl}-4,5,6,7-tetrahydro-1H-pyrazolo[4,3-c]pyridin-1-yl)propyl]-4-pyridin-2-ylpiperidin-4-ol] — 8.2-fold higher, 980 nM
- O=C(CO)N1CCc2c(c(-c3ccc(C(F)(F)F)c(SCCN4CCOCC4)c3)nn2CC(O)CN2CCCCC2)C1 (stereo not shown) [Example 238, 1-[5-(Hydroxyacetyl)-3-{3-[(2-morpholin-4-ylethyl)sulfanyl]-4-(trifluoromethyl)phenyl}-4,5,6,7-tetrahydro-1H-pyrazolo[4,3-c]pyridin-1-yl]-3-piperidin-1-ylpropan-2-ol] — 9-fold higher, 1080 nM
- OC(CN1CCC(c2ccncc2)CC1)Cn1nc(-c2ccc(C(F)(F)F)c(SCCN3CCCCC3)c2)c2c1CCNC2 (stereo not shown) [Example 343, 1-(3-{3-[(2-Piperidin-1-ylethyl)sulfanyl]-4-(trifluoromethyl)phenyl}-4,5,6,7-tetrahydro-1H-pyrazolo[4,3-c]pyridin-1-yl)-3-(4-pyridin-4-ylpiperidin-1-yl)propan-2-ol] — 5.5-fold higher, 660 nM
- O=C(CSc1cc(-c2nn(CC(O)CN3CCC(N4CCCC4)CC3)c3c2CNCC3)ccc1C(F)(F)F)N1CCOCC1 (stereo not shown) [Example 360, 1-(3-{3-[(2-Morpholin-4-yl-2-oxoethyl)sulfanyl]-4-(trifluoromethyl)phenyl}-4,5,6,7-tetrahydro-1H-pyrazolo[4,3-c]pyridin-1-yl)-3-(4-pyrrolidin-1-ylpiperidin-1-yl)propan-2-ol] — 63-fold higher, 7540 nM
- CS(=O)(=O)N1CCc2c(c(-c3ccc(C(F)(F)F)c(SCCN4CC[C@H](F)C4)c3)nn2C[C@@H](O)CN2CCCCC2)C1 [Example 354, (2S)-1-{3-[3-({2-[(3S)-3-Fluoropyrrolidin-1-yl]ethyl}sulfanyl)-4-(trifluoromethyl)phenyl]-5-(methylsulfonyl)-4,5,6,7-tetrahydro-1H-pyrazolo[4,3-c]pyridin-1-yl}-3-piperidin-1-ylpropan-2-ol] — 11-fold higher, 1270 nM
- CS(=O)(=O)N1CCc2c(c(-c3ccc(C(F)(F)F)c(SCCN4CCCC(F)(F)C4)c3)nn2C[C@@H](O)CN2CCCCCC2)C1 [Example 574, (2S)-1-Azepan-1-yl-3-{3-[3-{[2-(3,3-difluoropiperidin-1-yl)ethyl]sulfanyl}-4-(trifluoromethyl)phenyl]-5-(methylsulfonyl)-4,5,6,7-tetrahydro-1H-pyrazolo[4,3-c]pyridin-1-yl}propan-2-ol] — within 1.5-fold, 130 nM
- CS(=O)(=O)N1CCc2c(c(-c3ccc(C(F)(F)F)c(SCCN4CCC(F)(F)CC4)c3)nn2C[C@@H](O)CN2CCCCC2)C1 [Example 211, (2S)-1-{3-[3-{[2-(4,4-Difluoropiperidin-1-yl)ethyl]sulfanyl}-4-(trifluoromethyl)phenyl]-5-(methylsulfonyl)-4,5,6,7-tetrahydro-1H-pyrazolo[4,3-c]pyridin-1-yl}-3-piperidin-1-ylpropan-2-ol] — within 1.5-fold, 130 nM
- CC1C(=O)NCCN1CCSc1cc(-c2nn(CC(O)CN3CCC(N4CCCC4)CC3)c3c2CN(S(C)(=O)=O)CC3)ccc1C(F)(F)F (stereo not shown) [Example 749, 4-(2-{[5-{1-[2-Hydroxy-3-(4-pyrrolidin-1-ylpiperidin-1-yl)propyl]-5-(methylsulfonyl)-4,5,6,7-tetrahydro-1H-pyrazolo[4,3-c]pyridin-3-yl}-2-(trifluoromethyl)phenyl]sulfanyl}ethyl)-3-methylpiperazin-2-one] — 4.8-fold higher, 570 nM
- CC1CCN(CCSc2cc(-c3nn(C[C@@H](O)CN4CCC(C5CCCCC5)CC4)c4c3CN(S(C)(=O)=O)CC4)ccc2C(F)(F)F)CC1 [Example 741, (2S)-1-(4-Cyclohexylpiperidin-1-yl)-3-{3-[3-{[2-(4-methylpiperidin-1-yl)ethyl]sulfanyl}-4-(trifluoromethyl)phenyl]-5-(methylsulfonyl)-4,5,6,7-tetrahydro-1H-pyrazolo[4,3-c]pyridin-1-yl}propan-2-ol] — 6-fold lower, 20 nM
- CS(=O)(=O)N1CCc2c(c(-c3ccc(C(F)(F)F)c(SCCN4CCC(F)CC4)c3)nn2C[C@@H](O)CN2CCCC(C(=O)O)C2)C1 (stereo partly drawn) [Example 617, 1-[(2S)-3-{3-[3-{[2-(4-Fluoropiperidin-1-yl)ethyl]sulfanyl}-4-(trifluoromethyl)phenyl]-5-(methylsulfonyl)-4,5,6,7-tetrahydro-1H-pyrazolo[4,3-c]pyridin-1-yl}-2-hydroxypropyl]piperidine-3-carboxylic acid] — 2-fold higher, 240 nM
- CC(C)(C)C1CCN(CC(O)Cn2nc(-c3ccc(C(F)(F)F)c(SCC(=O)N4CCCC4)c3)c3c2CCNC3)CC1 (stereo not shown) [Example 269, 1-[4-(1,1-Dimethylethyl)piperidin-1-yl]-3-(3-{3-[(2-oxo-2-pyrrolidin-1-ylethyl)sulfanyl]-4-(trifluoromethyl)phenyl}-4,5,6,7-tetrahydro-1H-pyrazolo[4,3-c]pyridin-1-yl)propan-2-ol] — 5.2-fold higher, 630 nM
- CC(C)N1CCN(CC(O)Cn2nc(-c3ccc(C(F)(F)F)c(SCCN4CCCCC4)c3)c3c2CCN(S(C)(=O)=O)C3)CC1 (stereo not shown) [Example 545, 1-[4-(1-Methylethyl)piperazin-1-yl]-3-[5-(methylsulfonyl)-3-{3-[(2-piperidin-1-ylethyl)sulfanyl]-4-(trifluoromethyl)phenyl}-4,5,6,7-tetrahydro-1H-pyrazolo[4,3-c]pyridin-1-yl]propan-2-ol] — 11-fold higher, 1320 nM

Reference: patent publication US20090099157A1, “TETRAHYDRO-PYRAZOLO-PYRIDINE THIOETHER MODULATORS OF CATHEPSIN S” (priority 2007, published 2009)
